Patent US20180000942A1, “COMPOSITIONS FOR DRUG ADMINISTRATION” (priority 2013, published 2018)

Conditions: 25 mg in 0.5% tetradecyl-beta-D-maltoside (Intravail A3), oral and rectal

CNS(=O)(=O)Cc1ccc2[nH]cc(CCN(C)C)c2c1 [sumatriptan]
Cmax compared to currently available 25 mg oral tablets, in words: increases Cmax
